Among the data in US20030207290 are ECL signal with Sulfo-TAG anti-phosphotyrosine after SAP treatment and SRC reaction (+SRC, +SAP) values, retold here.

By UniProt entry, the sequences of proteins in these tests, tags left out.
UniProt O75563, whole entry: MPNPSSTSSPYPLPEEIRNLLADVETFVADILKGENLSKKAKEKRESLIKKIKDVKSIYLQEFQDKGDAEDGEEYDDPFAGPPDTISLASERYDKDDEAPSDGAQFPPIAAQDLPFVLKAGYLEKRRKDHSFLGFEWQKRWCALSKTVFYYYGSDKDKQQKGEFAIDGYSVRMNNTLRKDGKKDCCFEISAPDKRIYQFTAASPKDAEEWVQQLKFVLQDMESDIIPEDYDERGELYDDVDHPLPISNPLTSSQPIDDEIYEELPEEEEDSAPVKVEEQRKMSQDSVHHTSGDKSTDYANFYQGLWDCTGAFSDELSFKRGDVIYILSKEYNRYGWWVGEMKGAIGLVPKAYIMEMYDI

The target in this series is SKAP-HOM (EST clone IMAGE 3893964), in vitro translated, biotin-labelled (UniProt O75563).

Consider SRC (known kinase, 0.1 mU SRC/µl), for which the ECL signal with Sulfo-TAG anti-phosphotyrosine after SAP treatment and SRC reaction (+SRC, +SAP) is 32000 ECL signal.
